According to article PMC6289942, “Development of a NS2B/NS3 protease inhibition assay using AlphaScreen® beads for screening of anti-dengue activities” (Heliyon, 2018):

Molecular target: Dengue NS2B/NS3 protease enzyme (DENV2) (dengue virus serotype 2 (DENV2)) (UniProt P14340)

Aprotinin (from UniProt P00974 36-93) (natural protein)
IC50 of inhibition of NS2B/NS3 protease activity: cleavage of the tagged peptide substrate, read in the AlphaScreen assay: 350 nM | IC50 of inhibition of NS2B/NS3 protease activity: protease assay with the fluorogenic substrate BOC-Gly-Arg-Arg-AMC: 150 nM
